Measured vapor pressure values of organic chemicals

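The OPERA project collected these measurements from public sources as training and test data for property models. The files give a single number for a compound and property, which may rest on several reports. How each value was measured is not recorded, so precision varies. The measured form (salt, isomer or mixture) is not always the one drawn. Unmarked limits or estimates from the upstream databases cannot be ruled out.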

Vapor pressure is log10 of mmHg; the set covers 15 to 30 °C, mostly 20 to 25 °C.

{"smiles": "O=C(O)C(Cc1ccccc1)NC(O)=Nc1ccccc1Cl", "stereo": "stereo unspecified", "name": "N-{[(2-Chlorophenyl)imino](hydroxy)methyl}phenylalanine", "log vapor pressure (log10 mmHg)": "-6.644"}
{"smiles": "C=CCSSCCC", "name": "Allyl propyl disulfide", "log vapor pressure (log10 mmHg)": "-0.426"}
{"smiles": "CC1=CCC(O)(C(C)C)CC1", "stereo": "stereo unspecified", "name": "4-Methyl-1-(propan-2-yl)cyclohex-3-en-1-ol", "log vapor pressure (log10 mmHg)": "-0.399"}
{"smiles": "C=C[C@@](C)(O)/C=C/C=C(\\C)CCC=C(C)C", "name": "(3R,4E,6E)-3,7,11-Trimethyldodeca-1,4,6,10-tetraen-3-ol", "log vapor pressure (log10 mmHg)": "-2.824"}
{"smiles": "COc1ccc(C(OC[C@H]2O[C@@H](n3cnc4c(NC(=O)c5ccccc5)ncnc43)C[C@@H]2O)(c2ccccc2)c2ccc(OC)cc2)cc1", "log vapor pressure (log10 mmHg)": "-8.988"}
{"smiles": "CC(C)CC1CC(C)CCO1", "stereo": "stereo unspecified", "name": "2-Isobutyl-4-methyltetrahydro-2H-pyran", "log vapor pressure (log10 mmHg)": "-0.016"}
{"smiles": "COc1cc(C#N)ccc1C=O", "name": "4-Formyl-3-methoxybenzonitrile", "log vapor pressure (log10 mmHg)": "-4.543"}
{"smiles": "Cc1ccc(S(=O)[O-])cc1.Cc1ccc(S(=O)[O-])cc1.[Zn+2]", "name": "Benzenesulfinic acid, 4-methyl-, zinc salt", "log vapor pressure (log10 mmHg)": "-4.484"}
{"smiles": "NCCCOCCOCCOCCCN", "name": "3,3'-[Oxybis(ethane-2,1-diyloxy)]dipropan-1-amine", "log vapor pressure (log10 mmHg)": "-4.284"}
{"smiles": "CCC(C)C(=O)N(C)c1ccccc1", "stereo": "stereo unspecified", "name": "Butanamide, N,2-dimethyl-N-phenyl-", "log vapor pressure (log10 mmHg)": "-2.381"}
{"smiles": "O=C(CCS)OCC(COC(=O)CCS)(COC(=O)CCS)COC(=O)CCS", "log vapor pressure (log10 mmHg)": "-5.502"}
{"smiles": "Clc1c(Cl)c(Cl)c2c(Cl)cccc2c1Cl", "name": "1,2,3,4,5-Pentachloronaphthalene", "log vapor pressure (log10 mmHg)": "-4.375"}
{"smiles": "CCCCCCCCCc1cc(CN(CCO)CCO)c(O)c(CN(CCO)CCO)c1", "name": "Phenol, 2,6-bis[[bis(2-hydroxyethyl)amino]methyl]-4-nonyl-", "log vapor pressure (log10 mmHg)": "-9.42"}
{"smiles": "c1ccc2c(NCCCN3CCOCC3)cccc2c1", "name": "4-Morpholinepropanamine, N-1-naphthalenyl-", "log vapor pressure (log10 mmHg)": "-4.979"}
{"smiles": "CC(=O)[O-].CC[P+](c1ccccc1)(c1ccccc1)c1ccccc1", "name": "Ethyltriphenylphosphonium acetate", "log vapor pressure (log10 mmHg)": "-7.782"}
{"smiles": "CCOc1ccc(-c2ccc(C3CCC(CC)CC3)cc2)c(F)c1F", "stereo": "stereo unspecified", "log vapor pressure (log10 mmHg)": "-7.193"}
{"smiles": "CC(=O)[C@H]1CC[C@H]2[C@@H]3CC=C4C[C@@H](O)CC[C@]4(C)[C@H]3CC[C@]12C", "name": "Pregnenolone", "log vapor pressure (log10 mmHg)": "-9.565"}
{"smiles": "Clc1cc(Cl)cc(-c2ccc(Cl)c(Cl)c2Cl)c1", "name": "2,3,3',4,5'-Pentachlorobiphenyl", "log vapor pressure (log10 mmHg)": "-5.115"}
{"smiles": "CCN(CC[N+](C)(C)C)c1ccc(/N=N/c2nc(-c3ccccc3)ns2)c(C)c1.COS(=O)(=O)[O-]", "log vapor pressure (log10 mmHg)": "-5.232"}
{"smiles": "S=c1sc2nc3ccccc3nc2s1", "name": "Thioquinox", "log vapor pressure (log10 mmHg)": "-7"}
{"smiles": "CCOC(=O)ON=C(C)C(=O)c1ccccc1", "name": "1,2-Propanedione, 1-phenyl-, 2-[O-(ethoxycarbonyl)oxime]", "log vapor pressure (log10 mmHg)": "-4.426"}
{"smiles": "O=CCCC=C1CC2CC1C1CCCC21", "stereo": "stereo unspecified", "name": "4-(Octahydro-5H-4,7-methanoinden-5-ylidene)butanal", "log vapor pressure (log10 mmHg)": "-3.084"}
{"smiles": "CCC(C)c1cc(C(C)(C)C)c(O)c(C(C)(C)C)c1", "stereo": "stereo unspecified", "name": "4-(Butan-2-yl)-2,6-di-tert-butylphenol", "log vapor pressure (log10 mmHg)": "-2.821"}
{"smiles": "C=C(C)C(=O)OCCOc1ccccc1", "name": "Ethylene glycol phenyl ether methacrylate", "log vapor pressure (log10 mmHg)": "-2.682"}
{"smiles": "CCN(CC)c1ccc(N=Nc2c(C#N)cc([N+](=O)[O-])cc2C#N)c(C)c1", "log vapor pressure (log10 mmHg)": "-9.319"}
{"smiles": "NCCS", "name": "Cysteamine", "log vapor pressure (log10 mmHg)": "-0.878"}
{"smiles": "CCCCN(C=O)CCCC", "name": "N,N-Dibutylformamide", "log vapor pressure (log10 mmHg)": "-1.673"}
{"smiles": "Nc1nc(=O)c2nc(CNc3ccc(C(=O)N[C@@H](CCC(=O)O)C(=O)O)cc3)cnc2[nH]1", "name": "Folic acid", "log vapor pressure (log10 mmHg)": "-10"}
{"smiles": "Clc1cc(Cl)c(Cl)nc1Cl", "log vapor pressure (log10 mmHg)": "-1.648"}
{"smiles": "CSc1nc(NC2CC2)nc(NC(C)(C)C)n1", "name": "Cybutryne", "log vapor pressure (log10 mmHg)": "-6.18"}
{"smiles": "FC(F)C(F)(F)C(F)(F)C(F)(F)C(F)(F)C(F)(F)C(F)(F)C(F)F", "name": "1H,8H-Perfluorooctane", "log vapor pressure (log10 mmHg)": "1.145"}
{"smiles": "Clc1ccc(-c2c(Cl)cccc2Cl)c(Cl)c1Cl", "name": "2,2',3,4,6'-Pentachlorobiphenyl", "log vapor pressure (log10 mmHg)": "-4.445"}
{"smiles": "O=[N+]([O-])c1ccccc1NCCO", "name": "Ethanol, 2-[(2-nitrophenyl)amino]-", "log vapor pressure (log10 mmHg)": "-6.08"}
{"smiles": "CC(C)c1ccc(Cl)cc1CNC1CC1", "log vapor pressure (log10 mmHg)": "-2.885"}
{"smiles": "CCOC(=O)OC", "name": "Carbonic acid, ethyl methyl ester", "log vapor pressure (log10 mmHg)": "1.444"}
{"smiles": "CCCOCC(C)OCC(C)O", "stereo": "stereo unspecified", "name": "Butyl dipropasol solvent", "log vapor pressure (log10 mmHg)": "-0.921"}
{"smiles": "CCN1CCN(C(=O)N[C@@H](C(=O)N[C@@H]2C(=O)N3[C@@H]2SC(C)(C)[C@@H]3C(=O)O)c2ccccc2)C(=O)C1=O", "log vapor pressure (log10 mmHg)": "-7.911"}
{"smiles": "Cc1cccc(CC(=O)O)c1", "name": "m-Tolylacetic acid", "log vapor pressure (log10 mmHg)": "-1.227"}
{"smiles": "Brc1ccc(Oc2ccccc2Br)cc1Br", "name": "2',3,4-Tribromodiphenyl ether", "log vapor pressure (log10 mmHg)": "-4.875"}
{"smiles": "CC(C)CN(C=O)CC(C)C", "name": "N,N-Bis(2-methylpropyl)formamide", "log vapor pressure (log10 mmHg)": "-1.236"}

Data: OPERA 2.9 data sets, kmansouri/OPERA on GitHub.